The experiment relates to Ovarian-39 (OV39) ovarian cancer PDX. The experiment in a line: In vivo efficacy, OV39 ovarian cancer PDX. The arrangement: species or system NOD/SCID mice (human tumor PDX). The note with it: 1.5 mg/kg; Day 21.

One compound from patent publication US9872922B2, “Anti-EFNA4 antibody-drug conjugates” (PFIZER, INC., priority 2013, dated 2018) can be followed below.

`COc1cccc2c1C(=O)c1c(O)c3c(c(O)c1C2=O)C[C@@](O)(C(=O)CO)C[C@@H]3O[C@H]1C[C@H](N)[C@H](O)[C@H](C)O1` [Doxorubicin, doxorubicin, reference compound] displayed a mean tumor volume of 106 ± 19.
